These results are taken from patent US6846817B2 (Regents of the University of Minnesota, priority 1999, dated 2005).

Sequences of proteins named here, by UniProt entry; tags and fusion partners are left off. Residues count along the entry.
UniProt Q05941, 23-502: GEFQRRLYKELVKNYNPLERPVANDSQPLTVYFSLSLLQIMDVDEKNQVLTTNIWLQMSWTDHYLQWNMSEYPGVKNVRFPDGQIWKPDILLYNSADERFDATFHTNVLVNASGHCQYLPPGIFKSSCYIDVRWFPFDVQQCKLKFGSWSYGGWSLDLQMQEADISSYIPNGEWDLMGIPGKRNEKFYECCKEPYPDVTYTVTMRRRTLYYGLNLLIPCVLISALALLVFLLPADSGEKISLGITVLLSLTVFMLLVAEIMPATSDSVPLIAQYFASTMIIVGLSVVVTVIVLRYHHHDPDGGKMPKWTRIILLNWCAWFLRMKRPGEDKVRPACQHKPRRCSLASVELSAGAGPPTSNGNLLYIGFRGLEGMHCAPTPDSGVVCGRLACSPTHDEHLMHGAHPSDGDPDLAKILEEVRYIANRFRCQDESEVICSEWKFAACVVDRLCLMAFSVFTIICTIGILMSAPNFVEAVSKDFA

Where two headings read alike, the source gives them in different places.

For orientation: Ki means a measure of affinity in units of concentration, obtained from inhibition or displacement.

In the assay the target is α7 nicotine receptor (Rattus norvegicus, UniProt Q05941). Nature of the assay: biochemical. The class given is binding.

On to `CN1CCCCC1C1CCc2ccccc2O1` (single isomer, unassigned) [Compound 1, erythro-2-(1-Methylpiperidin-2-yl)chroman], for which the inhibitory constant (Ki) was greater than 10 µM. As to `CN1CCCCC1C1CCc2ccccc2O1` (single isomer, unassigned) [Compound 6, threo-2-(1-Methylpiperidin-2-yl)chroman], the inhibition constant Ki (read-out: Ki-[125I]--BT) was greater than 10 µM. As to `CN1CCCCC1C1CCc2c(O)cccc2O1` (stereo not drawn) [Compound 2, erythro-5-Hydroxy-2-(1-methylpiperidin-2-yl)chroman], under “read-out: Ki-[125I]--BT”, the Ki was greater than 10 µM.
